Measured values from PubChem BioAssay (Tox21).
“And” between values parts separate entries of the source, which are not always exact repeats. Equal entries are not always repeated. Only a part is listed here, and it is no random draw. Results filed as inconclusive are left out. The source holds several records for some structures; these can differ, active in one and inactive in another. The source made the active and inactive calls. Unless noted, the call rests on the fitted dose curve; in most records, active means well fitted curve in the direction sought with a large enough effect in the repeat runs; inconclusive means weak or mixed curves; inactive means no such curve, though single readings can be large; an effect the other way counts as inactive or inconclusive.

How the values were obtained:
[1] = qHTS assay for small molecule agonists of the p53 signaling pathway (AID 651631; calls by dose curve; further: nearly all actives have a fitted effect of over 15% in size); settings: HCT-116 p53RE-bla reporter, beta-lactamase FRET ratio, 16 h
Outline: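 Beta-lactamase reporter activity under p53 response elements was quantified in HCT-116 cells by FRET fluorescence, following 16 h incubation with test compounds at 37 °C and 2 h substrate development at room temperature.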

[2] = qHTS assay for small molecules that induce genotoxicity in human embryonic kidney cells expressing luciferase-tagged ATAD5 (AID 651632); settings: HEK293T ATAD5-luciferase induction, 16 h; series mostly up to 83.3 µM; further: nearly all actives have a fitted effect of over 15% in size
Outline: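 Cells were seeded at 2,000 per well, dosed with compound, and incubated 16 hr at 37C in 5% CO2. Luciferase activity was then quantified after a 30 min room-temperature incubation with Amplite.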

[3] = qHTS assay for small molecule agonists of the p53 signaling pathway - cell viability (AID 651633; calls by dose curve; further: nearly all actives have a fitted effect of over 30% in size); settings: p53RE-bla HCT-116 viability, ATP luminescence, 16 h
Outline: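 Viability counter-read: CellTiter-Glo luminescence (30 min, room temperature) in the same p53RE-bla plates. These plates had been exposed to compounds for 16 h at 37 C.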

[4] = qHTS assay for small molecules that induce genotoxicity in human embryonic kidney cells expressing luciferase-tagged ATAD5 - cell viability (AID 651634; calls by dose curve; further: nearly all actives have a fitted effect of over 25% in size); settings: HEK293T ATAD5-luc cells viability, CellTiter-Fluor, 15.5 h
Outline: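 Cells (HEK293T, luciferase-tagged ATAD5) are seeded at 2,000 per well, dosed with compound or DMSO vehicle, and incubated 15.5 hr at 37C and 5% CO2. CellTiter-Fluor is added for 30 min before fluorescence is measured.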

[5] = qHTS assay to test for compound auto fluorescence at 590 nm (red) in HepG2 cells (AID 720674); settings: HepG2 autofluorescence, red 540/590 nm, 1 h
Outline: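 1 hr compound incubation on HepG2 cells, 37 C, 5% CO2; plate read ex 540 nm / em 590 nm; intensities reported as Rose Bengal sodium equivalents.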

[6] = qHTS assay to test for compound auto fluorescence at 535 nm (green) in HepG2 cells (AID 720675); settings: green autofluorescence 485/535 nm, 1 h
[7] = qHTS assay to test for compound auto fluorescence at 460 nm (blue) in HEK293 cells (AID 720678); settings: blue autofluorescence 405/460 nm
Outline: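 Measured: blue fluorescence (Ex 405/Em 460 nm) of compound-treated HEK293 cells, incubated overnight at 37C with 5% CO2 and scaled to triamterene equivalents.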

[8] = qHTS assay to test for compound auto fluorescence at 535 nm (green) in HEK293 cells (AID 720680); settings: green autofluorescence 485/535 nm
[9] = qHTS assay to test for compound auto fluorescence at 460 nm (blue) in HEK293 cell free culture (AID 720681); settings: cell-free medium, autofluorescence 405/460 nm (blue)
Outline: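 Blue fluorescence (Ex 405/Em 460 nm, triamterene-equivalent) was read immediately after pin transfer of compound or DMSO into medium (DMEM, 10% FBS) without cells.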

[10] = qHTS assay for small molecule disruptors of the mitochondrial membrane potential (AID 720635); settings: HepG2 mitochondrial membrane potential, Mito-MPS dye ratio; series mostly up to 83.2 µM; further: potency means the concentration at half of the fitted maximal effect
Outline: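 Mitochondrial membrane potential tracked with Mito-MPS dye, red aggregates (ex 540/em 590 nm) against green monomers (ex 490/em 535 nm). Compound treatment 1 hr at 37C, dye 30 min in HepG2.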
On the % scale 0 is the no-effect control and ±100 the full control effect.

Cc1c([N+](=O)[O-])cccc1[N+](=O)[O-]
inactive: activation ([1]; at 73.3 µM (top of the series)) -2.45% and 1.22% | Potency [2] | activity change, negative = cytotoxicity ([3]; at 83.3 µM (top of the series)) 20.1% and -13.4% | activity, negative = cytotoxicity ([4]; at 83.3 µM (top of the series)) 27.8% and 15.3% | fluorescence, relative to Rose Bengal ([5]; at 91.3 µM (top of the series)) -0.781% and -0.0384% | fluorescence, % of fluorescein control ([6]; at 91.3 µM (top of the series)) -0.0256% and 0.0047% | fluorescence, % of triamterene ([7]; at 91.3 µM (top of the series)) -0.108% and -0.0054% | fluorescence, % of fluorescein ([8]; at 91.3 µM (top of the series)) -0.0533% and 0.0048% | fluorescence, % of fluorescent control ([9]; at 91.3 µM (top of the series)) -0.633% and -0.0383%

CP(=O)(O)OCCC[Si](O)(O)O
inactive: Potency [2] | activity change, negative = cytotoxicity ([3]; at 83.3 µM (top of the series)) 10% | activity, negative = cytotoxicity ([4]; at 83.3 µM (top of the series)) 12.6% | fluorescence, relative to Rose Bengal ([5]; at 91.3 µM (top of the series)) 0.254% | fluorescence, % of fluorescein control ([6]; at 91.3 µM (top of the series)) 0.0748% | fluorescence, % of triamterene ([7]; at 91.3 µM (top of the series)) 0.0795% | fluorescence, % of fluorescein ([8]; at 91.3 µM (top of the series)) 0.0049% | fluorescence, % of fluorescent control ([9]; at 91.3 µM (top of the series)) 0.101%

COc1ccc([N+](=O)[O-])cc1[N+](=O)[O-]
inactive: activation ([1]; at 73.3 µM (top of the series)) -3.72% | Potency [2] | activity change, negative = cytotoxicity ([3]; at 83.3 µM (top of the series)) -14.1% | activity, negative = cytotoxicity ([4]; at 83.3 µM (top of the series)) 17.5% | fluorescence, relative to Rose Bengal ([5]; at 91.3 µM (top of the series)) 0.136% | fluorescence, % of fluorescein control ([6]; at 91.3 µM (top of the series)) -0.0336% | fluorescence, % of triamterene ([7]; at 91.3 µM (top of the series)) -0.0093% | fluorescence, % of fluorescein ([8]; at 91.3 µM (top of the series)) 0.055% | fluorescence, % of fluorescent control ([9]; at 91.3 µM (top of the series)) -0.0213%

CCOP(=O)(CC)Oc1ccc([N+](=O)[O-])cc1 (stereo unspecified)
inactive: Potency [2] | activity, negative = cytotoxicity ([4]; at 83.3 µM (top of the series)) -22.9% | fluorescence, relative to Rose Bengal ([5]; at 46 µM (top of the series)) 0.279% | fluorescence, % of fluorescein control ([6]; at 46 µM (top of the series)) -0.0262% | fluorescence, % of triamterene ([7]; at 46 µM (top of the series)) -0.156% | fluorescence, % of fluorescein ([8]; at 46 µM (top of the series)) -0.222% | fluorescence, % of fluorescent control ([9]; at 46 µM (top of the series)) 0.0293%

Cc1ccc([N+](=O)[O-])cc1[N+](=O)[O-]
active: Potency [10] 60.3 µM
inactive: activation ([1]; at 73.3 µM (top of the series)) -3.39% and -3.71% | Potency [2] | activity change, negative = cytotoxicity ([3]; at 83.3 µM (top of the series)) 15.6% and -10.8% | activity, negative = cytotoxicity ([4]; at 83.3 µM (top of the series)) 12% and 13.6% | fluorescence, relative to Rose Bengal ([5]; at 91.3 µM (top of the series)) -0.0705% and -0.0651% | fluorescence, % of fluorescein control ([6]; at 91.3 µM (top of the series)) 0.0702% and 0.101% | fluorescence, % of triamterene ([7]; at 91.3 µM (top of the series)) -0.0002% and 0.0082% | fluorescence, % of fluorescein ([8]; at 91.3 µM (top of the series)) 0.0397% and -0.0144% | fluorescence, % of fluorescent control ([9]; at 91.3 µM (top of the series)) -0.107% and -0.0083%

[NH4+].[O-][Cl+3]([O-])([O-])[O-]
inactive: Potency [2] | activity, negative = cytotoxicity ([4]; at 83.3 µM (top of the series)) 11.4% | activity, negative = cytotoxicity ([4]; at 95.3 µM (top of the series)) -17% | Potency [10] | fluorescence, relative to Rose Bengal ([5]; at 91.3 µM (top of the series)) -0.0472% | fluorescence, relative to Rose Bengal ([5]; at 95.7 µM (top of the series)) 0.0554% | fluorescence, % of fluorescein control ([6]; at 91.3 µM (top of the series)) 0.0362% | fluorescence, % of fluorescein control ([6]; at 95.7 µM (top of the series)) 0.0758% | fluorescence, % of triamterene ([7]; at 91.3 µM (top of the series)) 0.102% | fluorescence, % of triamterene ([7]; at 95.7 µM (top of the series)) -0.0429% | fluorescence, % of fluorescein ([8]; at 91.3 µM (top of the series)) -0.0309% | fluorescence, % of fluorescein ([8]; at 95.7 µM (top of the series)) 0.03% | fluorescence, % of fluorescent control ([9]; at 91.3 µM (top of the series)) -0.0885% | fluorescence, % of fluorescent control ([9]; at 95.7 µM (top of the series)) 0.253%

Nc1cc([N+](=O)[O-])cc([N+](=O)[O-])c1O
inactive: activation ([1]; at 95.1 µM (top of the series)) -6.23% | Potency [2] | activity change, negative = cytotoxicity ([3]; at 95.3 µM (top of the series)) -10.9% | fluorescence, relative to Rose Bengal ([5]; at 95.7 µM (top of the series)) 0.111% | fluorescence, % of fluorescein control ([6]; at 95.7 µM (top of the series)) -0.302% | fluorescence, % of triamterene ([7]; at 95.7 µM (top of the series)) -1.15% | fluorescence, % of fluorescein ([8]; at 95.7 µM (top of the series)) -0.546% | fluorescence, % of fluorescent control ([9]; at 95.7 µM (top of the series)) -1.06%
active: Potency [10] 2.79 µM
